{"source": "patent US20120115955A1", "about": "“Methods for tumor treatment and adipogenesis differentiation” (Centro de Investigacion Principe Felipe, priority 2010, published 2012)", "test_system": "MALME-3M cells", "assay": "Nile-Red neutral lipid / LD quantification by flow cytometry (FL2)", "format": "cell-based, human", "details": "12-hour incubation, data not shown", "procedure": "FIG. 6. […] MALME-3M cells were cultured in the presence of 10 μg/ml of docosahexaenoic acid, 100 μg/ml of nervonic acid, 100 μg/ml of erucic acid, 10 μg/ml of arachidonic acid, 100 μg/ml of linolenic acid, 100 μg/ml of linoleic acid, 100 μg/ml of oleic acid, 100 μg/ml of palmitoleic acid, 100 μg/ml of elaidic acid, or 100 μg/ml petroselinic acid for 12 hours. Fatty acids were dissolved in DMSO; therefore the cells cultured with RPMI+10% FBS and treated with DMSO only were considered negative controls. The Nile-Red analysis was performed as described in the Material and Methods section. Quantification in the FL2 parameter was assessed by the FlowJo software. Fold induction was estimated by calculating the ratio between treated conditions and the untreated condition (control). The results are representative of three independent experiments.\nCells (10^5) were washed twice in PBS and then incubated with 25 μg/ml of Nile-Red (Invitrogen) in PBS (15 min, 4° C.). After incubation, cells were filtered through a 30 μm sieve (CellTrics, Partec). Fluorescent emission (525 nm) was registered in the FL2 channel by a Beckman Coulter Flow Cytometer (Cytomics™ FC 500). Data files were analyzed using the FlowJo flow cytometer analysis software."}
{"substance": "albumin: human recombinant albumin", "values": [{"measurement": "neutral lipids in LDs (Nile-RED), synergy test POL / recombinant albumin", "value": "presented no adipogenic properties"}]}
